Data from PMC5863483, “Low HLA binding of diabetes-associated CD8+ T-cell epitopes is increased by post translational modifications” (BMC Immunology, 2018).

What follows are molecules tested against HLA-A*02:01 (Homo sapiens, UniProt P04439, D140Y/D185E/D98H/E176V/E277Q/G131W/G231S/I119V/I121R/I166T/I218V/L300P/L318F/N151K/N90K/P208A/P217A/Q86G/Q94H/R138H/R169H/T345S) (assay: HLA-peptide competition binding assay, A*02:01). Details: not given.

| SMILES | IC50 |
| --- | --- |
| CC(C)C[C@H](NC(=O)[C@H](C)N)C(=O)N[C@@H](Cc1ccc(O)cc1)C(=O)N[C@@H](CC(C)C)C(=O)N[C@H](C(=O)N[C@@H](CS)C(=O)NCC(=O)N[C@@H](CCC(=O)O)C(=O)N[C@@H](CCCNC(N)=O)C(=O)NCC(=O)O)C(C)C | 9080 nM |
| C[C@@H](O)[C@H](NC(=O)[C@H](CCCCN)NC(=O)[C@@H]1CCCN1C(=O)[C@@H](NC(=O)[C@H](Cc1ccc(O)cc1)NC(=O)[C@H](Cc1ccccc1)NC(=O)[C@H](Cc1ccccc1)NC(=O)CNC(=O)[C@H](CCCNC(N)=O)NC(=O)[C@@H](N)CCC(=O)O)[C@@H](C)O)C(=O)O | 36300 nM |
| CC(C)C[C@H](NC(=O)[C@H](Cc1ccc(O)cc1)NC(=O)[C@@H](N)CC(C)C)C(=O)N[C@H](C(=O)N[C@@H](CS)C(=O)NCC(=O)N[C@@H](CCC(=O)O)C(=O)N[C@@H](CCCNC(N)=O)C(=O)NCC(=O)N[C@@H](Cc1ccccc1)C(=O)O)C(C)C | 18800 nM |

Same assay, conditions: read-out: A*02:01 binding (IC50 nM) Modified; post-translationally modified insulin peptide; competition binding assay; a dash indicates IC50 >40,000 nM

| SMILES | IC50 |
| --- | --- |
| C[C@@H](O)[C@H](NC(=O)[C@H](Cc1ccc(O)cc1)NC(=O)[C@H](Cc1ccccc1)NC(=O)[C@H](Cc1ccccc1)NC(=O)CNC(=O)[C@H](CCCNC(N)=O)NC(=O)[C@H](CCC(=O)O)NC(=O)CN)C(=O)N1CCC[C@H]1C(=O)N[C@@H](CCCCN)C(=O)O | > 40000 nM |
| C[C@@H](O)[C@H](NC(=O)[C@H](CCCCN)NC(=O)[C@@H]1CCCN1C(=O)[C@@H](NC(=O)[C@H](Cc1ccc(O)cc1)NC(=O)[C@H](Cc1ccccc1)NC(=O)[C@H](Cc1ccccc1)NC(=O)CN)[C@@H](C)O)C(=O)N[C@@H](CCCNC(N)=O)C(=O)N[C@@H](CCCNC(N)=O)C(=O)O | > 40000 nM |
| C[C@@H](O)[C@H](NC(=O)[C@H](CCCCN)NC(=O)[C@@H]1CCCN1C(=O)[C@@H](NC(=O)[C@H](Cc1ccc(O)cc1)NC(=O)[C@H](Cc1ccccc1)NC(=O)[C@H](Cc1ccccc1)NC(=O)CNC(=O)[C@@H](N)CCCNC(N)=O)[C@@H](C)O)C(=O)N[C@@H](CCCNC(N)=O)C(=O)O | > 40000 nM |
